# Data taken from publication PMC4078735 (2013).
# Key:
# [1] = PAMPA, pH 7.4
# [2] = pig, PAMPA, pH 7.4
# [3] = PAMPA
# [4] = PAMPA, pH 7.4; remark: listed apart in the source
substance,measurement,setting,value
buprenorphine,"Permeability (Log Pe, cm/sec) Microvessel lipid + cholesterol (MVLC)",[1],−3.03 ± 0.28 cm/sec
same,"Permeability (Log Pe, cm/sec) Porcine polar brain lipid (PBL)",[2],−3.92 ± 0.43 cm/sec
same,Ability to cross the dodecane barrier,[3],unable to cross the barrier
same,"Permeability (Log Pe, cm/sec) Microvessel lipid (MVL)",[4],−1.59 ± 0.13 cm/sec
